Test results published in ChEMBL document CHEMBL1128729, “Alpha- and beta-adrenoceptors: from the gene to the clinic. 2. Structure-activity relationships and therapeutic applications” (J Med Chem, 1995).

Sequences of proteins named here, by UniProt entry; tags and fusion partners are left off. A change or cut given only in a name is not applied to a line headed by its entry.
UniProt P15823: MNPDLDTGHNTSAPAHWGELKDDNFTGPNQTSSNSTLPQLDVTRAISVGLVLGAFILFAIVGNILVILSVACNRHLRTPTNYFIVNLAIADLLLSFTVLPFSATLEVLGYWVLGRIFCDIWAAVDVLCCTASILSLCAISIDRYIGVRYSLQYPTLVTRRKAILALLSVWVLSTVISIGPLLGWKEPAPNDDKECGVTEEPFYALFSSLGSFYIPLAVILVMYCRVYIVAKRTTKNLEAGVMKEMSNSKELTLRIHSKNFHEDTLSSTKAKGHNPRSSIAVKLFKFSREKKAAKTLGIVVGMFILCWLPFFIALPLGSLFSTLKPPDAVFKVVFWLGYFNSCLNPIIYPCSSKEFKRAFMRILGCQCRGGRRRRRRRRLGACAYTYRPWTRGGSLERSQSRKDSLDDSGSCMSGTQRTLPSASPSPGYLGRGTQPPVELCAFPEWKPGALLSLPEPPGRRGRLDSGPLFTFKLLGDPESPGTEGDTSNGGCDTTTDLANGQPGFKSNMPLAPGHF
UniProt P23944: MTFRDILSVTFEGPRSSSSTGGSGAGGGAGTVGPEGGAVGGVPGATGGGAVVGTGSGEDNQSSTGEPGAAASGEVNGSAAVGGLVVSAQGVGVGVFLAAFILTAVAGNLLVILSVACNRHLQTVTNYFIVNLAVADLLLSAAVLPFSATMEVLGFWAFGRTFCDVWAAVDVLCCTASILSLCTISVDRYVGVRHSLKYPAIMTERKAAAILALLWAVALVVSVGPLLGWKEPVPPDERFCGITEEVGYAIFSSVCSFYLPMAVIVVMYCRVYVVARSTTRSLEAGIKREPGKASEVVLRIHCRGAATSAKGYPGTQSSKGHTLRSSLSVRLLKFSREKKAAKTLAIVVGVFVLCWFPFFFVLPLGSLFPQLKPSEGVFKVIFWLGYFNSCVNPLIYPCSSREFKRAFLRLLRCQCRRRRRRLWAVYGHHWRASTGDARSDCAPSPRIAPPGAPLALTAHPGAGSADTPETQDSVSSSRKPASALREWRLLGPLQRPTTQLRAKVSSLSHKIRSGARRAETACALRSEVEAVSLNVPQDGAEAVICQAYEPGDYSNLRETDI
UniProt P43140: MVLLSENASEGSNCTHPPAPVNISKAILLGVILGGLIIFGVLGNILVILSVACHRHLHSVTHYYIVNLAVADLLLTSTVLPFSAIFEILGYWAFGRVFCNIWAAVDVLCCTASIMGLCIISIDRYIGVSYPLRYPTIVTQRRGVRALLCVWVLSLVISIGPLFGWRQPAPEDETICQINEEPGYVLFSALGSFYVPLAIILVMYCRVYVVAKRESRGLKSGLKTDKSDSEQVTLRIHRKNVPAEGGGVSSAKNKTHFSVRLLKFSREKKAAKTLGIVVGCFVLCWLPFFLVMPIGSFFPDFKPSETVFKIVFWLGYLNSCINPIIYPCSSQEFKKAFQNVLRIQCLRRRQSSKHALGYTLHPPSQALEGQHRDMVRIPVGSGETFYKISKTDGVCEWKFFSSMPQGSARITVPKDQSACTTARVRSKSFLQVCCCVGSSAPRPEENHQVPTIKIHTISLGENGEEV

Target: Adrenergic receptor alpha-1 (Rattus norvegicus, UniProt P15823+P23944+P43140)
Assay: Effective dose for contraction of reserpine-pretreated rat vas deferens.
Assay type: functional

Row | SMILES | EC50 [µM]
1 | CNC[C@H](O)c1ccc(O)c(O)c1 (stereo in doubt; (-)) [EPINEPHRINE] | 4.073
2 | CNC[C@H](O)c1ccc(O)c(O)c1 (stereo in doubt; (+)) [EPINEPHRINE] | > 100
